The values below come from patent US20220002403A1.

Chains of the proteins cited; added tags and fusions are not shown. A line that says so, or that is headed by a name, gives the form on record, which may keep a tag or linker.
UniProt Q8N423, other isoform, or with tags, fused parts or gaps: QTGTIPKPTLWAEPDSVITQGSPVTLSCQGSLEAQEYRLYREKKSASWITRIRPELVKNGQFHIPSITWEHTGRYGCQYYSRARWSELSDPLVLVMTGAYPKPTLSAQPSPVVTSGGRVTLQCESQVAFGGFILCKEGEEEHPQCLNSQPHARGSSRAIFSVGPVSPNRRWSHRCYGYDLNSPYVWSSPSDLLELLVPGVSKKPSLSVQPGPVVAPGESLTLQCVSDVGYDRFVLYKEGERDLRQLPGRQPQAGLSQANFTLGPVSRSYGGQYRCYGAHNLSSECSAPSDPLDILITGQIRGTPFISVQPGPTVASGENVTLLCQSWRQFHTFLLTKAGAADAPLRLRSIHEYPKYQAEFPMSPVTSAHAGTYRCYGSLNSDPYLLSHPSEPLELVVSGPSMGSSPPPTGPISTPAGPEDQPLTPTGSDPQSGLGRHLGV

The term Kd denotes the concentration at which binding is half-saturated. In general, koff refers to the rate constant with which the complex falls apart.

The target in test [1] is ILT4-His (recombinant extracellular domain of human ILT4 fused to a poly-Histidine tag) (human) (UniProt Q8N423). Put plainly: SPR, kinetic fit; ratio of KD to that of 1E1(G4).
Test [2] has the same target. Kind of test: SPR, steady-state approximation; ratio of KD to that of 1E1(G4). Background: SPR reads the build-up and loss of mass on a sensor chip optically.
For test [3] the target is unchanged. Kind of test: SPR (Biacore T200): Fc fusion captured, ILT4-His titrated; steady-state approximation.
The target is the same in test [4]. Kind of test: SPR (Biacore T200): Fc fusion captured by human Fc capture on CM5 chip, ILT4-His titrated; 1:1 kinetic model; n=2.

For the substance “HLA-G1 Fc (recombinant extracellular domain of HLA-G (isoform 1) fused to the human IgG1 Fc domain) (from UniProt P17693 25-308) (Fc fusion)”, the KD Ratio in test [1] worked out at 630; in test [2], 670. Further, the dissociation constant Kd in test [3] and in test [4] was 11 µM throughout. The koff in test [4] was found to be 1.1 s⁻¹.
